Test results reported in patent US4204879A, “Amino acid salts of anionic dyestuffs which have high solubility in organic solvents” (Williams (Hounslow) Limited, priority 1976, dated 1980).

Assay: Maximum concentration of dye giving a solution stable for 24 hours at room temperature (Tables 2 and 3)
Type: physicochemical
Procedure: The solubility values given in these Tables are the maximum concentration of dye in grams/liter giving a solution stable for 24 hours at room temperature.

[1] = Table 2, 24 hours, room temperature, salts of 1:2 chromium complex of 2-amino-4-nitrophenol→3-methyl-1-phenyl-5-pyrazolone

With N,N-di(2-ethylhexyl)glycine the “Solubility in Acetone” value [1] was greater than 100 g.1^-1, the “Solubility in Ethanol” value [1] was 100 g.1^-1 and the “Solubility in Ethyl Acetate” value [1] was 50 g.1^-1.
In the case of N-(iso-tridecyl)glycine, the “Solubility in Acetone” value [1] is reported as 350 g.1^-1, the “Solubility in Ethanol” value [1] is reported as 350 g.1^-1 and the “Solubility in Ethyl Acetate” value [1] is reported as 250 g.1^-1.
In the case of aniline, the “Solubility in Ethanol” value [1] is reported as less than 5 g.1^-1.
With di-(2-ethylhexyl) amine the “Solubility in Acetone” value (acetone, 24 h) was greater than 100 g.1^-1, the “Solubility in Ethanol” value (ethanol, 24 h) was 20 g.1^-1 and the “Solubility in Ethyl Acetate” value (ethyl acetate, 24 h) was less than 5 g.1^-1.
